Ab-95 light chain CDR variants: yeast mating affinities

Antigen: PDVDLGDISGINAS, a 14-residue peptide of the SARS-CoV-2 spike HR2 region.

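The starting antibody came from a phage panning campaign against this peptide. The library (AAYL52) carries one to three amino acid substitutions per variant, with no insertions or deletions. AlphaSeq pools MATa yeast showing the antibodies with MATalpha yeast showing the peptide. Pairs that bind mate more often; barcode pairs of the diploids are counted by sequencing. Each replicate has its own calibration line, from reference interactions of the BCL2 family. There are three technical replicates.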

Each scFv is VH, three GGGGS repeats, VL, as in the parent Ab-95, and differs from it in the CDRs of the light chain only.
VH: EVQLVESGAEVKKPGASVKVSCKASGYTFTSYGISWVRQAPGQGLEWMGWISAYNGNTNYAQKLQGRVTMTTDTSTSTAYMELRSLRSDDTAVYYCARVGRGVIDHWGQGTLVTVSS
VL: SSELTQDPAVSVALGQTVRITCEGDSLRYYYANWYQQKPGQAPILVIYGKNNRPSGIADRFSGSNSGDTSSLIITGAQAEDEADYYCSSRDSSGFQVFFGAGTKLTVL

Each variant is given by its three light chain CDRs, as the data file delimits them; those of the parent are EGDSLRYYYAN, GKNNRPS, SSRDSSGFQVF.
Numbers give log10(Kd / nM), so 0 is 1 nM and 3 is 1 µM. Smaller is tighter.
An entry "n.d." has no value in the source: the pair was not observed among the diploids in that replicate. This suggests poor binding but is not conclusive.
Nonspecific signal, from three strains lacking the peptide, appeared in 28% of pairings of library AAYL52, centred on 3.91 (5% of these signals below 2.90); values are not corrected for it. The control count says in how many pairings with the empty strains this scFv gave a signal, with their mean in brackets.

| # | CDR-L1 | CDR-L2 | CDR-L3 | log10 Kd, replicates | empty controls |
|---|---|---|---|---|---|
| 1 | EGDSLRYYYAN | GKNNRPF | AKRDSSGFQVF | 5.41 n.d. 3.03 | 2/9 (3.44) |
| 2 | EGDSLRYYCAN | GKNNNPS | SSRDSSGFPVF | 3.58 4.55 3.21 | 1/9 (3.97) |
| 3 | EGDSLRYFYAN | GKNNRPS | SSRDVSGFQVF | 3.27 3.24 n.d. | 2/9 (3.40) |
| 4 | EGDSLRGYYAN | GKNNRPS | SSRDQSGFQVP | 2.82 2.86 2.28 | 4/9 (3.67) |
| 5 | EGDSLPYYYAN | GKNNRPS | SSRDSWVFQVF | 2.81 2.74 2.49 | 2/9 (3.77) |
| 6 | EGDSLRFYYAN | GKNRRKS | SSRDSSGFQVF | n.d. n.d. n.d. | 3/9 (3.42) |
| 7 | EGDSLRYYYAN | GKNNRWS | SSRISSGFQVL | 4.23 5.52 n.d. | 1/9 (4.25) |
| 8 | SGDSLRYYYNN | GKNNRPS | SSRCSSGFQVF | 3.24 2.79 4.61 | 2/9 (3.63) |
| 9 | EGDSLRDYYAN | GKNNRQS | SSRDSSGFQVK | 2.39 2.50 2.47 | 3/9 (3.51) |
| 10 | EGDSQRYYYAN | GKNCRPS | DSRDSSGFQVF | 3.59 2.85 2.91 | 5/9 (4.51) |
| 11 | EGDSLRYYYAN | GKNNRPS | SSRDGSGFQVH | 2.31 2.28 3.06 | 2/9 (3.78) |
| 12 | EGDSLYKYYAN | GKNNRPS | SSRDSSGFKVF | 2.65 2.90 3.03 | 2/9 (3.71) |
| 13 | YGDSLRYYYAN | GKNNRPS | SSRMFSGFQVF | n.d. 4.37 n.d. | 1/9 (4.42) |
| 14 | EGDSERYYYAY | GTNNRPS | SSRDSSGFQVF | n.d. n.d. n.d. | 5/9 (3.78) |
| 15 | EGDSLRYYSAN | GKNNRPS | SSVDESGFQVF | n.d. 2.71 n.d. | 1/9 (2.98) |
| 16 | IGDSLRYYYHN | GKNDRPS | SSRDSSGFQVF | n.d. n.d. n.d. | 2/9 (3.37) |
| 17 | EGDSLDYDYAN | GNNNRPS | SSRDSSGFQVF | 2.79 2.36 2.78 | 1/9 (4.43) |
| 18 | EGDSLRYYYAN | GKNNRYE | SSRDSSGCQVF | 5.09 n.d. 3.25 | 2/9 (3.60) |
| 19 | CGDSLRYYYAN | GKNNRPS | SSRTSSGFQGF | n.d. n.d. n.d. | 0/9 |
| 20 | EGDSLRKYYKN | GKNNRPS | SSRDSRGFQVF | 3.81 n.d. n.d. | 1/9 (3.67) |
| 21 | EGDSLSYYYAN | GKNNRPS | SSRDSQKFQVF | 2.11 3.00 3.17 | 3/9 (4.20) |
| 22 | EGDSLRYYYAN | GKNNRPS | ASGDSSGFDVF | 2.03 1.56 2.42 | 2/9 (3.56) |
| 23 | EGDSLRYYYAN | GKNNRMS | SSRDSRGFQWF | 2.93 3.25 2.60 | 1/9 (4.03) |
| 24 | EGDSLRYYYAN | GKNTRPS | SSKDSSGFQVF | 2.97 1.98 2.27 | 1/9 (4.54) |
| 25 | EGESARYYYAN | GKNNRPS | SSRDSAGFQVF | n.d. 3.38 3.19 | 4/9 (3.77) |
| 26 | EGGSLRYYYAN | GKWNRPS | SSRDSSGFQVI | n.d. 3.53 3.35 | 1/9 (3.22) |
| 27 | EGKVLRYYYAN | GKNNRPS | PSRDSSGFQVF | n.d. n.d. n.d. | 3/9 (3.72) |
| 28 | EGHSLRYYYAN | GKCNRPN | SSRDSSGFQVF | 3.28 n.d. 2.69 | 4/9 (4.09) |
| 29 | EGDSLRLYYAN | GKNNRPS | SSRDSSQFQVF | 3.80 n.d. 4.33 | 6/9 (3.71) |
| 30 | EGDSLFYYYAN | GKNFRPF | SSRDSSGFQVF | 4.11 2.79 4.22 | 5/9 (3.57) |
| 31 | EGVSLRYYYAN | GKNNRPS | SSMDSSGFQVF | 2.56 2.32 2.08 | 5/9 (3.68) |
| 32 | EGDSLRYYYAN | GKNGRPS | SSRDSSCTQVF | 2.64 2.59 3.15 | 5/9 (4.15) |
| 33 | EGDSLRYYYGN | GRNNRPS | SSRDLSGFQVF | n.d. n.d. n.d. | 1/9 (3.27) |

For reference, 3 entries of the list once more:

| CDR-L1 | CDR-L2 | CDR-L3 | log10 Kd, replicates | empty controls |
|---|---|---|---|---|
| EGDSLRYYYAN | GKNNRPS | ASGDSSGFDVF | 2.03 1.56 2.42 | 2/9 (3.56) |
| EGDSLRYYYGN | GRNNRPS | SSRDLSGFQVF | n.d. n.d. n.d. | 1/9 (3.27) |
| YGDSLRYYYAN | GKNNRPS | SSRMFSGFQVF | n.d. 4.37 n.d. | 1/9 (4.42) |

From the AlphaSeq antibody data of Engelhart et al. 2022 (doi:10.1038/s41597-022-01779-4), copy in the FLAb collection.